Literature values as cited in patent US8603436B2, “Methods and compositions for targeted drug delivery” (priority 2000, dated 2013).

By UniProt entry, the sequences of proteins in these tests, tags left out.
UniProt P02786, whole entry, stated change not applied: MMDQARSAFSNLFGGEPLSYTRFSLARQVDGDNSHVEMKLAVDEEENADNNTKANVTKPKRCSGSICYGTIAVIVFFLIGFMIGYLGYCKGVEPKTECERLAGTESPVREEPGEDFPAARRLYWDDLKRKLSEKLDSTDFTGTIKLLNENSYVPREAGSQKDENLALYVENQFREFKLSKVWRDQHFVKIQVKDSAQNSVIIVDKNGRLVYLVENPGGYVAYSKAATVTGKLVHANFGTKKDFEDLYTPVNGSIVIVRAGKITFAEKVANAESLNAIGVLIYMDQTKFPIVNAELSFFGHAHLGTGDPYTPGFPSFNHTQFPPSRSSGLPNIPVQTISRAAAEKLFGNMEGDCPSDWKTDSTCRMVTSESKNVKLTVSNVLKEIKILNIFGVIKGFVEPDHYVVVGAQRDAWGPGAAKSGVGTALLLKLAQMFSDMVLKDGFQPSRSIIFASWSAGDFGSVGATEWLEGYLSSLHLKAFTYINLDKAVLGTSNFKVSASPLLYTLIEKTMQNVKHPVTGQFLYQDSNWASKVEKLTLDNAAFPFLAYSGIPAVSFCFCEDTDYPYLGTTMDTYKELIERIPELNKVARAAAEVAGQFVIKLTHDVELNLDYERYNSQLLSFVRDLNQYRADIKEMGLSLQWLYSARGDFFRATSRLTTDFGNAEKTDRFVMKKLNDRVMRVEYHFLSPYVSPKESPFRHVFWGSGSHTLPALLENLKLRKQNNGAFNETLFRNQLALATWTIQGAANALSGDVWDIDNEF

Target: T1, engineered version of the transferrin receptor (Homo sapiens, UniProt P02786)
T1 construct: host or cells: tumor in vivo made to overexpress the engineered receptor gene
Conditions: in vivo, MRI

transferrin-linked paramagnetic particles: transferrin-linked paramagnetic particles detected by MRI
increase of paramagnetic particle uptake compared to tumors not expressing the engineered receptor gene: 2.5 fold
